Assay results: patent US20250327029A1, “PROCESS FOR THE OBTENTION OF INVARIANT NATURAL KILLER T CELLS” (Université de Lorraine, priority 2022, published 2025)

System: CD4^− iNKT cells
Assay: Expansion of iNKT cells from PBMC cultured with alpha-GalCer and a cytokine (IL-15 or IL-2)
Assay type: cell-based, human
Protocol: The method according to the present invention is characterized by the fact that the expansion factor of iNKT cells is equal to or higher than 10, preferably 100, more preferably 500. The expansion factor of iNKT cells is more preferably comprised between 100 and 10 000. The “expansion factor” corresponds to the number of iNKT cells obtained at day 14 of expansion divided by the number of iNKT cells put in culture at day 0. The number of cells is determined by routinely used techniques by the skilled person (cell couting and flow cytometry staining to determine the percentage of iNKT cells among total PBMCs).
PBMC obtained by centrifugation of fresh whole blood on density gradient were culture at the concentration of 5.10^5 cells/mL in RPMI 1640 advanced medium (ref: 11530446, Gibco®), with 5% SVF v/v, 4 mM glutamine, 100 ng/mL alpha-galactoside-ceramide (KRN-7000, Funakoshi). Cultures were performed in a cell culture bag in a normoxia incubator at 37° C. and 5% CO2.
On day 1 of culture, 10 ng/mL of IL-15 were added.
On day 7 of culture, 50% of the medium was changed and 10 ng/mL of IL-15 were introduced.
On day 10 of the culture, 50% of the medium was changed and 10 ng/mL of IL-15 were introduced. […]

IL-2: interleukin 2, comparator cytokine of the classical expansion protocol
mean % CD4^− iNKT cells±SEM (D14 of culture, n=14): 47.7±7.35% | mean expansion factor of CD4^− iNKT cells±SEM (cytokine present during expansion phase, n=17, cells at day 14 / cells at day 0): 158±38
